Measured values taken from ChEMBL document CHEMBL3856218, “Polycyclic Polyprenylated Acylphloroglucinol Congeners from Hypericum scabrum” (J Nat Prod, 2016).

Chains of the proteins cited; added tags and fusions are not shown.
UniProt P31645, whole entry: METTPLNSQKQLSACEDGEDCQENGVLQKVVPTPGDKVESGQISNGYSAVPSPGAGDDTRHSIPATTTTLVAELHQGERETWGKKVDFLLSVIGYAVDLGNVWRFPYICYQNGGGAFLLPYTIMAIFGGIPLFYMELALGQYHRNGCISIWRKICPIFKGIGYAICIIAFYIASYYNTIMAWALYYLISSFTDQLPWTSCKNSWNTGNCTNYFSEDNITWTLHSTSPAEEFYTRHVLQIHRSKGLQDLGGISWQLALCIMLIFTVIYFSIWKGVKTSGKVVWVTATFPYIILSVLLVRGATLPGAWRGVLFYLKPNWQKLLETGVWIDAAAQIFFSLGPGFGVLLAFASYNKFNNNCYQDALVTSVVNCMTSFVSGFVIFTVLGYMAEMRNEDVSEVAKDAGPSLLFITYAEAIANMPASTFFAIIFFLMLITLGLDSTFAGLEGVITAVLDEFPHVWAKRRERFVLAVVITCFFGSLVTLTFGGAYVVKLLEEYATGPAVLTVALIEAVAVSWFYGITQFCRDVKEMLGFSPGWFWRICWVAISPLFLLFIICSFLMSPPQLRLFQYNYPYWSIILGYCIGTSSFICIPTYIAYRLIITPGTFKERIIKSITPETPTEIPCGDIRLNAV

Target: Sodium-dependent serotonin transporter (Homo sapiens, UniProt P31645)
Assay: Inhibition of serotonin transporter (unknown origin) assessed as suppression of synaptosomal uptake of serotonin

`CC(C)=CCC[C@]1(C)[C@@H](CC=C(C)C)C[C@]2(CC=C(C)C)C(=O)C(CC=C(C)C)=C(O)[C@@]1(C(=O)C(C)C)C2=O` was tested, and the IC50 was 2000 nM.
